Source: BindingDB's records for US9221831
pEC50, pKi: −log10 of the molar value.

Sequences of proteins named here, by UniProt entry; tags and fusion partners are left off.
UniProt P41145, whole entry: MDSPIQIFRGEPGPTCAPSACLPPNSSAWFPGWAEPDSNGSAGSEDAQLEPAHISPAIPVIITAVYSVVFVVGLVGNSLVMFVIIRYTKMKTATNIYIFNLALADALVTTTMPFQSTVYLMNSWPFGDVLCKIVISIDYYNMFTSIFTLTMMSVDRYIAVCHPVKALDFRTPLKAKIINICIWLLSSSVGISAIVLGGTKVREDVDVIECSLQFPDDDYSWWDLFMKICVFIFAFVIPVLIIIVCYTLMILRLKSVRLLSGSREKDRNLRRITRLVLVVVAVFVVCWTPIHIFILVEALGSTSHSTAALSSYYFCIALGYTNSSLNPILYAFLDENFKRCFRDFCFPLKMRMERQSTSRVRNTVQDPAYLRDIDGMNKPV
UniProt P41146, whole entry: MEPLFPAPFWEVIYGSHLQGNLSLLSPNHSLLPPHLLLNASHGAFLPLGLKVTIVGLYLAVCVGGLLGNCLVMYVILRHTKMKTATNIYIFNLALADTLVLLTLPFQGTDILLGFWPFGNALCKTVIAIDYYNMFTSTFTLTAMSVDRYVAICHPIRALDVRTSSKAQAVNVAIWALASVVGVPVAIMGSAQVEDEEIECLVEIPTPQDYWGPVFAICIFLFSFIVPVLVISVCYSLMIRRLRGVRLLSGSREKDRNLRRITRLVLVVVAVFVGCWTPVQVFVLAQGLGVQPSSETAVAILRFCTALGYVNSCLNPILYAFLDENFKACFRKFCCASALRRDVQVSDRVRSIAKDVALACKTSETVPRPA

What was measured:
[1] = target: Kappa-type opioid receptor (Homo sapiens, UniProt P41145); assay: ASSAY_NAME: Radioligand Dose-Displacement Binding Assay DESCRIPTION: Radioligand dose displacement assays used 0.4 nM [3H]-U69,593 (GE Healthcare, Piscataway, N.J.; 40 Ci/mmole) with 15 μg membrane protein (recombinant κ opioid receptor expressed in HEK 293 cells; in-house prep) in a final volume of 200 μl binding buffer (5% DMSO, 50 mM Trizma base, pH 7.4). Non-specific binding was
Nociceptin receptor = Nociceptin receptor (Homo sapiens, UniProt P41146); assay: ASSAY_NAME: Functional Assay DESCRIPTION: Functional [35S]GTPgammaS binding assays were conducted as follows. ORL-1 membrane solution was prepared by sequentially adding final concentrations of 0.026 ug/ul ORL-1 membrane protein, 10 ug/ml saponin, 3 uM GDP and 0.20 nM [35S]GTPgammaS to binding buffer (100 mM NaCl, 10 mM MgCl2, 20 mM HEPES, pH 7.4) on ice. The prepared membrane solution (190 ul/wel

`CO[C@]12CC[C@@]3(C[C@@H]1COCc1ccccc1C)[C@H]1Cc4ccc(OCCO)c5c4[C@@]3(CCN1C)[C@H]2O5` was tested, and the pKi [1] was 9.34 and the pEC50 (Nociceptin receptor) was 5.39.
